Paper PMC7381267, “A Bromodomain-Containing Protein 4 (BRD4) Inhibitor Suppresses Angiogenesis by Regulating AP-1 Expression” (Frontiers in Pharmacology, 2020)

Tested on: chick embryo CAM vasculature
Experiment: Chick embryo chorioallantoic membrane (CAM) anti-angiogenesis assay; note: key: An inhibitory effect observable but not obvious on the generation of third-grade vessels was indicated by '+'; an obvious medium-level inhibitory effect on secondary vessels was indicated by '++'; an obvious potent inhibitory effect on primary blood vessels was indicated by '+++'
Type: in vivo
Conditions: 50 μg/ml on CAM of 9-day-old chick embryos, 48 h; egg 5
Experimental: Fertilized white leghorn chicken eggs were obtained from the Avian Farm of South China Agriculture University (Guangzhou, China) and the shells were cleaned with 1% geramine. The eggs were incubated under 50–60% humidity at 37.5°C. A small window (10 × 10 mm^2) was cut above the air chamber of egg while the chick embryo was growing through the ninth day. BET family member inhibitors or DMSO (dissolved in 30 µl of phosphate-buffered saline [PBS, pH 7.4]) were placed directly onto the live chick embryo CAM through the window at the indicated concentrations and incubated for 48 h. Then, the eggshells were cut carefully along the axis of the median line, and the content was discarded. […] The microvessel density (MVD) was calculated as the percentage of blood vessel area in the total drug-treated area using the Image-Pro Plus 6.0 software (IPP 6.0, Media Cybernetics, Inc., Rockville MD, USA).
The effects of all these selected compounds on angiogenesis were first determined through use of the chick embryo CAM model. The CAM assay is a well-established model for screening anti-angiogenic agents, because the ability of compounds to prevent blood vessel formation can be easily detected ([Deryugina and Quigley, 2008]; [Chen et al., 2010]). […] The CAMs of chick embryos were photographed, and the inhibition ratio indicating angiogenesis was calculated and analyzed. […]

Cc1sc2c(c1C)C(c1ccc(Cl)cc1)=N[C@@H](CC(=O)OC(C)(C)C)c1nnc(C)n1-2 [(+)-JQ1 (1), reference compound]
Anti-angiogenic activity, egg number 5: +
